# Only a part is listed here, and it is no random draw. Activity calls are given as the source filed them. Calls come from the whole dose curve; as a rule, active = well fitted inhibition curve with a large enough effect in the polarisation, with a control signal flat; inconclusive = small, poorly fitted or top-dose-only effect, or effect the other way, or a change in a side signal; inactive = no such curve, though single readings can be large or run the other way; the % refers to the polarisation.
# Protein sequences, listed by entry. Tags and fused reporters are not part of them.
# UniProt P11308, whole entry: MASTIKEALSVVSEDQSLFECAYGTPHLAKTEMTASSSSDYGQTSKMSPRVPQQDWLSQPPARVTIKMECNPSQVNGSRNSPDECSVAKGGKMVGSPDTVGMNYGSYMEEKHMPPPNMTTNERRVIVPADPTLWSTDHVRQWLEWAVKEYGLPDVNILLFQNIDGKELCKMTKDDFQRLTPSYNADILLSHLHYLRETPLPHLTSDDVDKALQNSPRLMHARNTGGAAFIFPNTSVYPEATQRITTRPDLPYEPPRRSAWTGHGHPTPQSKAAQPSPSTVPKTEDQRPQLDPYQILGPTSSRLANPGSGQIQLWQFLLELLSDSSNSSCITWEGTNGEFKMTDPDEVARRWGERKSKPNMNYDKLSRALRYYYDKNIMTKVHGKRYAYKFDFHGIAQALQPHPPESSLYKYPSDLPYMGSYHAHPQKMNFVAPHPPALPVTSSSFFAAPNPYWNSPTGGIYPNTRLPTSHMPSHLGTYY
# Target: Transcriptional regulator ERG (Homo sapiens) (UniProt P11308)
# Experiment: qHTS for Small Molecule Inhibitors of the ERG Ets/DNA interaction; note: % of control where 0% means no effect
# Conditions: fluorescence polarization, His-ERG Ets domain / labelled DNA; at 76.9 µM (top of the series)
# Description: The Ets family of proteins is a family of ~30 conserved transcription factors defined by the presence of an ~85 amino acid domain referred to as the Ets domain, which mediates sequence-specific DNA binding to a core DNA element GGAA/T.The Ets family member ERG has been linked to several neoplasms. […] More extensive studies of the effects of over-expression of ERG in prostate cells have recently been carried out and have shown that over-expression of ERG results in increased invasion. […] We will carry out a high throughout screen to identify inhibitors of the interaction between ERG and DNA using a fluorescence polarization (FP) assay with a His-tagged ERG Ets domain and fluorescently-labeled DNA probes to develop small molecule inhibitors of this interaction as probes to test this hypothesis and lay the groundwork for the development of targeted therapies against ERG. NIH Molecular Libraries Probe Production Network [MLPCN] NIH Chemical Genomics Center [NCGC] […]
# 1.5 ul of protein solution (1 uM ERG domain in 300mM KCl, 50mM Tris-HCl, 1mM EDTA, 1mM DTT, pH 7.5); 20 nl Control plate and compound library plate; 1.5 ul mixture of 5 nM Fluorescein-DNA and 100nM Texas-615-DNA solution in same buffer as above solution; measure fluorescence polarization sequentially for fluorescein (Excitation = 480 nm, Emission = 535s, 535p nm) and Texas red (Excitation = 555 nm, Emission = 632s, 632p nm).
row,SMILES,"FP activity, negative = inhibition"
1,CCC(=O)N(c1ccccc1)C1(COC)CCN(CCn2nnn(CC)c2=O)CC1,inactive: -27%
2,CCC(=O)N(c1ccccc1)C1(COC)CCN(CCc2cccs2)CC1,inactive: 7.05%

# Reference: PubChem BioAssay AID624246 (National Center for Advancing Translational Sciences (NCATS), 2012)
